Results on two compounds are retold here after patent US20090143279A1 (priority 2007, published 2009).

In one experiment the test system is OXPHOS gene expression. Particulars: composite Z-score vs DMSO; Conc 20 μM.
Experiment [1] concerns mitochondrial membrane potential. The note with it: composite Z-score vs DMSO; Conc 20 μM.
A further experiment concerns nuOXPHOS transcripts. Particulars: composite Z-score vs DMSO; Conc 20 μM.
For another experiment, the system named is mtOXPHOS transcripts. Particulars: composite Z-score vs DMSO; Conc 20 μM.
Another experiment has as its system reactive oxygen species. The note with it: composite Z-score vs DMSO; Conc 20 μM.
For a further experiment, the system named is C2C12 myotubes. Particulars: composite Z-score vs DMSO; Conc 20 μM.
Experiment [2] relates to cellular dehydrogenase activity. Particulars: composite Z-score vs DMSO; Conc 20 μM.

Like-named read-outs stand apart in the source and are kept apart here.

Regarding ergosterol acetate, the GE-HTS with OXPHOS gene expression was −0.380. Besides, in experiment [1], the ΔΨm is on record as 0.050. In the experiment on nuOXPHOS transcripts, the nucOX is given as −0.220. For the same compound, the mitoOX with mtOXPHOS transcripts is −0.680. For the same compound, the ROS in the experiment on reactive oxygen species turned out to be 0.270. The cyt c with cytochrome c (composite Z-score vs DMSO, Conc 20 μM) stood at 0.346. Besides, the Viability in the experiment with C2C12 myotubes is 0.023. In experiment [2], this compound gave an MTT of −1.580.
In the case of `CNCC(O)c1ccc(O)c(O)c1` (stereo not drawn) [adrenaline], in the experiment on cytochrome c, the cyt c worked out at 0.173.
